# This is a selection; strong and weak results do not stand in their true shares. Some compounds were tested as several samples or in several runs, with calls that do not always agree. The source made the active and inactive calls. Cut-off read from the data, not from the text of the source: active = growth inhibition above about 70%; inactive = the rest.
# Assay: NCI Yeast Anticancer Drug Screen. Data for the mgt1 strain (AID 153)
# Conditions: S. cerevisiae mgt1 mutant growth inhibition, hits give high values
# Procedure: Growth inhibition of yeast strains with defined genetic alterations is measured as a screen for potential anti-cancer activity. Selected strains with alterations in DNA damage repair or cell cycle control were exposed to compounds and growth inhibition was measured relative to vehicle treated controls. The strain used in this assay is mgt1
SMILES,growth inhibition (at 1.2 µM),growth inhibition (at 3.7 µM),growth inhibition (at 11.0 µM),growth inhibition (at 33.0 µM),growth inhibition (at 100.0 µM)
COc1ccc([N+](=O)[O-])c(C[N+](C)(CCCl)CCCl)c1,inactive: -53%,inactive: -25%,inactive: -14%,inactive: -41%,inactive: 3%
Cc1cccc(C[N+](C)(CCCl)CCCl)c1[N+](=O)[O-],inactive: -4%,inactive: -2%,inactive: -16%,inactive: 25%,active: 77%
COc1ccc(C[N+](C)(CCCl)CCCl)c([N+](=O)[O-])c1,inactive: -6%,inactive: -3%,inactive: 14%,inactive: 0%,inactive: 4%
ClCCN1CCCCC1CCl (stereo not given),inactive: -2%,inactive: 0%,inactive: -1%,inactive: 4%,inactive: 30%
Cc1ccc([N+](=O)[O-])c(C[N+](C)(CCCl)CCCl)c1,inactive: -21%,inactive: -23%,inactive: -26%,inactive: 11%,active: 84%

# — PubChem BioAssay (NCI)
